Results published in PubChem BioAssay AID522 (The Scripps Research Institute Molecular Screening Center, 2006).
This is a selection; strong and weak results do not stand in their true shares. The source made the active and inactive calls.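 Rule for the calls: active = activation above the mean activation of all tested compounds plus 3 SD (cut at about 50% in these data); inactive = the rest.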

Chains of the proteins cited; added tags and fusions are not shown.
UniProt Q13285, whole entry: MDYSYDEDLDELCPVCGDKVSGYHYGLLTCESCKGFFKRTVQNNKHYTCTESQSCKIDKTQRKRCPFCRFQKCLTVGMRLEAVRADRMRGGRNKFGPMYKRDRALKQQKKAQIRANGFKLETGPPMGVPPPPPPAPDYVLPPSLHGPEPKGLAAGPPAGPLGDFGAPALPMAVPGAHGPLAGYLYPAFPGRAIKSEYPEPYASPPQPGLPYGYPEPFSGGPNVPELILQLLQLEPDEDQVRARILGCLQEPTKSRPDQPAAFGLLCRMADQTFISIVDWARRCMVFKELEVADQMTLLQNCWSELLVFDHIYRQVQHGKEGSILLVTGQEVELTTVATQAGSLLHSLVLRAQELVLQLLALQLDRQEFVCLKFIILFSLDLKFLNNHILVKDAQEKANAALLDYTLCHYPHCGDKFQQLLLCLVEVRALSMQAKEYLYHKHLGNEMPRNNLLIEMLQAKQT

target: Steroidogenic factor 1 (Homo sapiens) (UniProt Q13285); experiment: activators of human SF-1, primary screen, cell-based, CHO-K1, Gal4-SF-1 LBD, luciferase luminescence (AID 522); conditions: CHO-K1 Gal4-SF-1 LBD luciferase reporter; at 10 µM; stronger effect = higher value; % increase over DMSO SF-1-specific signal
Procedure, shortened: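 Test system: CHO-K1 cells co-transfected with Gal4 DBD–human SF-1 LBD, 5xGal4 luciferase reporter. Quantity: 4,000 cells per well. Compound: 10 µM only. Incubation: compound added 1 h post-seeding, 20 h exposure at 37 °C, 5% CO2. Detection: SteadyLite luciferase luminescence. Replication: one test per compound.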

| SMILES | activation |
| --- | --- |
| CP(=O)(Nc1ccccn1)Oc1ccccc1 (stereo not drawn) | inactive: -4% |
| Cc1nc2ccc3ccccc3c2o1.O=[N+]([O-])c1cc([N+](=O)[O-])c(O)c([N+](=O)[O-])c1 | inactive: 11.2% |
| COc1ccccc1OP(C)(=O)Nc1ccc(C)c(C)c1 (stereo not drawn) | inactive: -3.5% |
| COc1ccccc1OP(C)(=O)Nc1c(C)n(C)n(-c2ccccc2)c1=O (stereo not drawn) | inactive: 1.1% |
| CP(=O)(Oc1ccccc1)N1CCOC1=O (stereo not drawn) | inactive: -24.1% |
| CCN(CC)CC(O)COC(=O)C(O)(c1ccccc1)C1CCCCC1 (stereo not drawn) | inactive: 10.8% |
| Cc1ccccc1NP(C)(=O)Nc1ccccc1C | inactive: -4.2% |
| CP(=O)(Nc1ccc2c(c1)OCCO2)Oc1ccccc1 (stereo not drawn) | inactive: 10.6% |
| CCOP(C)(=S)SCC(=O)NC(C)(CC)C(=O)O (stereo not drawn) | inactive: 0.7% |
| CN(C)CCOC(=O)C(O)(c1ccccc1)C1CCCCC1 (stereo not drawn) | inactive: -14.7% |
| CP(=O)(Nc1ccccc1F)Oc1ccccc1 (stereo not drawn) | inactive: -18.1% |
| Cc1ccc(C)c(NP(C)(=O)Oc2ccccc2)c1 (stereo not drawn) | inactive: 7.3% |
| Cc1nc2ccc3ccccc3c2s1.O=[N+]([O-])c1cc([N+](=O)[O-])c(O)c([N+](=O)[O-])c1 | inactive: -18.4% |
| CCOP(C)(=S)SCC(=O)NC(C)C(=O)O (stereo not drawn) | inactive: 8.1% |
| CP(=O)(NC(=O)Nc1ccccc1)Oc1ccccc1 (stereo not drawn) | inactive: 0.5% |
| CP(=S)(Nn1cnnc1)Oc1ccccc1 (stereo not drawn) | inactive: 0.2% |
| Cc1ccc(NP(C)(=O)Oc2ccccc2)c(C)c1 (stereo not drawn) | inactive: -7.2% |
| COc1ccccc1OP(C)(=O)Nc1ccc(C)cc1 (stereo not drawn) | inactive: 17% |
